These are literature values, as cited in patent publication US4937245A, “Bisphenylalkylpiperazine derivatives, a method of their preparation and a pharmaceutical preparation” (priority 1987, dated 1990).

Molecules are shown by their SMILES.

The subject of this data set is 5-HT2 binding site. Conditions: background statement on known drugs; cited from earlier work.

`CN(C)CCC=C1c2ccccc2CCc2ccccc21` [amitriptyline]: the “5HT2 blocking potency / binding site preference” value is “potent 5HT2 -blockers”.
